{"source": "paper PMC4929566", "about": "“The metabolome of [2-^14C](−)-epicatechin in humans: implications for the assessment of efficacy, safety, and mechanisms of action of polyphenolic bioactives” (Scientific Reports, 2016)", "experiment": "Metabolite profiling and quantification in urine (HPLC-MS2 with on-line radioactivity detector)", "assay_type": "in vivo, humans", "conditions": "human, oral 207 μmol 14C-EC, mean ± SEM n=8", "protocol": "The study was a single-center, open-label, and non-randomized study with two distinct elements: a run-in phase to establish a more defined dietary background of dietary flavanols and procyanidins and the subsequent ^14C-EC ADME study (Fig. 1B). Participants (n = 12) were enrolled in the run-in phase (day –17 to day –4) and asked to supplement their daily diet for 14 days with a commercially available flavanol-containing cocoa-based drink (250 mg cocoa flavanols; 40 mg of EC). This was followed by a 4-day period (day –4 to 0) of a low-flavanol diet. One day (study day -1) prior to the initialization of the ^14C-EC ADME study, all eligible participants were accommodated under controlled conditions at a metabolic research facility (Covance Clinical Pharmacology Inc., Wisconsin) until completion of the study. Based on the compliance of the first part of the study, 8 participants were selected to participate in the ^14C-EC ADME study. During the ^14C-EC ADME study (Fig. 1B.), volunteers received a low-flavanol, standardized high-fiber diet, and were encouraged to maintain an adequate level of hydration (water ad libitum). Volunteers were asked to fast for 8 h before the initiation of the study and for at least 4 h after the intake of the ^14C-EC test drink (water ad libitum). Venous blood samples were taken using Vacutainer collection tubes, containing potassium EDTA at 0 h (just prior to ^14C-EC ingestion), and at 0.25, 0.5, 1, 1.5, 2, 2.5, 3, 4, 6, 8, 10, 12, 16, 24, 36, and 48 h after test drink consumption. Plasma was obtained by whole blood centrifugation at 2000 × g for 15 min at 5 °C, separated into aliquots and stored at −80 °C until analysis. All urine and feces from the time just prior to the consumption of the test drink were collected at different time intervals for radioactivity and metabolite profiling. Clinical parameters and laboratory evaluations of participants were assessed at screening, on study day –1, and after completing the study, as detailed in Supplementary Methods.\nSamples were processed as described previously[18] and analyzed by HPLC-MS^2 in conjunction with an on-line HPLC-radioactivity monitor as described in SI Materials and Methods. Identification of metabolites involved comparing the retention time with authentic standards and MS^2 fragmentation patterns (Supplementary Methods). Quantification of metabolites in urine was based on HPLC radioactivity peak area (limit of quantification: 10^3 dpm). Due to the low levels of radioactivity, quantification in plasma was based on targeted HPLC-MS^2 using standard curves obtained with authentic standards (Supplementary Methods).\nHPLC-MS identifications of radiolabeled [2-14C](−)-epicatechin metabolites in urine Urine was analyzed with radioactivity and mass spectrometry (MS) detection using a 250 mm x 4.6 mm i.d. 5 µm Luna Phenyl-Hexyl column (Phenomenex, Macclesfield, UK) […]\nformic acid. Metabolite identification was performed by 1) co-chromatography of metabolites with reference compounds and a comparison of their MS fragmentation patterns 2, 2) by comparing m/z fragmentation patterns with earlier in-house observed […]\npatterns to databases of metabolites reported in earlier polyphenol feeding studies5-7. […]"}
{"substance": "5-(Phenyl)-γ-valerolactone-sulfate-O-glucuronide-I", "values": [{"measurement": "Metabolite present in urine, collection period 0–48 h", "result": "1.6 ± 0.7", "unit": "μ mol"}, {"measurement": "Metabolite present in urine, collection period 0–4 h", "setting": "– = not detected", "result": "0.1 ± 0.1", "unit": "μ mol"}, {"measurement": "Metabolite present in urine, collection period 4–8 h", "setting": "– = not detected", "result": "0.9 ± 0.8", "unit": "μ mol"}, {"measurement": "Metabolite present in urine, collection period 8–12 h", "setting": "– = not detected", "result": "0.2 ± 0.2", "unit": "μ mol"}, {"measurement": "Metabolite present in urine, collection period 12–24 h", "setting": "– = not detected", "result": "0.4 ± 0.3", "unit": "μ mol"}]}
